Four molecules from article PMC7504417 (International Journal of Molecular Sciences, 2020) can be followed below.

Chains of the proteins cited; added tags and fusions are not shown. A line that says so, or that is headed by a name, gives the form on record, which may keep a tag or linker.
UniProt P35372, with tags, fused parts or gaps: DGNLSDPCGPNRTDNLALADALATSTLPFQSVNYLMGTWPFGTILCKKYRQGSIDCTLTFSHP

Counter-ions that a name gives are not always drawn. Some results are limits rather than exact numbers.

Assay [1] addresses dopamine 1 receptor peptide D1DR 96–98 FCN (Homo sapiens, UniProt P21728). As to the kind of experiment: biochemical.
The target of assay [2] is Opioid Receptor (mu opioid receptor peptides) (Homo sapiens, UniProt P35372). As to the kind of experiment: Overall pattern of binding: Opioid Receptor peptides.
Assay [3] deals with T1, mu opioid receptor peptide Mu OPR 211–226 (Homo sapiens, UniProt P35372).
T1 construct: Mu OPR 211–226; purchased RS Synthesis (Louisville, KY, USA); host or cells: chemical synthesis
Description: biochemical. The conditions noted are these: read-out: Kd (µM) Mu OPR 211–226, lower-affinity binding.

Assay [4] addresses mu opioid receptor peptide Mu OPR 132–143 (Homo sapiens, UniProt P35372).
Assay [5] addresses T2, beta 2 adrenergic receptor peptide B2AR 183–185 NCY (Homo sapiens, UniProt P07550).
T2 construct: B2AR 183–185 NCY; purchased RS Synthesis (Louisville, KY, USA); host or cells: chemical synthesis
As to the kind of experiment: biochemical. It is filed as binding.

For assay [6], the target named is T3, beta 2 adrenergic receptor peptide B2AR 105–108 WCEF (Homo sapiens, UniProt P07550).
T3 construct: B2AR 105–108 WCEF; purchased RS Synthesis (Louisville, KY, USA); host or cells: chemical synthesis
Description: biochemical. It is filed as binding.

The target of assay [7] is histamine 1 receptor peptide HIHR 177–183 RDKCETD (Homo sapiens, UniProt P35367, E177R). Description: biochemical.

For `CNC[C@H](O)c1ccc(O)c(O)c1` [Epinephrine, epinephrine HCl], the Kd (commonly the constant that tells how readily two partners part at equilibrium) in assay [1] is 40 µM; in assay [2], 1 to 5 µM; in assay [3] it was 45 µM.

With `CSCC[C@H](NC(=O)[C@H](Cc1ccccc1)NC(=O)CNC(=O)CNC(=O)[C@@H](N)Cc1ccc(O)cc1)C(=O)O` [Met-Enkephalin, methionine-enkephalin], the “binding to muOPR 132–143, in words” value in assay [4] was “bound”.

Take `CN1CC[C@]23c4c5ccc(O)c4O[C@H]2[C@@H](O)C=C[C@H]3[C@H]1C5` [Morphine, morphine sulfate]: the Kd in assay [5] is over 1000 µM; in assay [6] it was 30 µM; in assay [7] it was 30 µM.

`NCCc1c[nH]c2ccc(O)cc12` [Serotonin, serotonin]: the Kd in assay [1] worked out at 30 µM.
